Measured values reported in ChEMBL document CHEMBL1156282, “4-Substituted-7-azaindoles bearing a ureidobenzofuranone moiety as potent and selective, ATP-competitive inhibitors of the mammalian target of rapamycin (mTOR)” (Bioorg Med Chem Lett, 2010).

Assay: Selectivity ratio of IC50 for PI3Kalpha to IC50 for mTOR

| SMILES | Ratio IC50 |
| --- | --- |
| Cn1cc(/C=C2\Oc3ccc(NC(=O)Nc4cccnc4)cc3C2=O)c2c(N3CCC(C(=O)N4C5CCC4COC5)CC3)ccnc21 | 644 |
| CNC(=O)Nc1ccc2c(c1)C(=O)/C(=C/c1cn(C)c3nccc(-c4ccccc4)c13)O2 | 6 |
| Cn1cc(/C=C2\Oc3ccc(NC(=O)Nc4cccnc4)cc3C2=O)c2c(N3CC4CCC(C3)O4)ccnc21 | 145 |
| Cn1cc(/C=C2\Oc3ccc(NC(=O)Nc4cccnc4)cc3C2=O)c2c(N3CCOCC3)ccnc21 | 4 |
| CCNC(=O)Nc1ccc2c(c1)C(=O)/C(=C/c1cn(C)c3nccc(N4CC5CCC(C4)O5)c13)O2 | 5.5 |
| Cn1cc(/C=C2\Oc3ccc(NC(=O)Nc4cccnc4)cc3C2=O)c2c(N3CC4CCC3CO4)ccnc21 (configuration not stated) | 33 |
| CNC(=O)Nc1cccc2c1C(=O)/C(=C/c1cn(C)c3nccc(-c4ccccc4)c13)O2 | > 2.9 |
| CN(C)CCNC(=O)Nc1ccc2c(c1)C(=O)/C(=C/c1cn(C)c3nccc(N4CC5CCC(C4)O5)c13)O2 | 4 |
| CNC(=O)Nc1ccc2c(c1)C(=O)/C(=C/c1cn(C)c3nccc(N4CC5CCC(C4)O5)c13)O2 | 61 |
| Cn1cc(/C=C2\Oc3ccc(NC(=O)Nc4cccnc4)cc3C2=O)c2c(N3CCC(C(=O)N4CC5CCC(C4)O5)CC3)ccnc21 | 98.6 |

Now from value to compound:

| Ratio IC50 | SMILES |
| --- | --- |
| 193 | CN(C)C(=O)C1CCN(c2ccnc3c2c(/C=C2\Oc4ccc(NC(=O)Nc5cccnc5)cc4C2=O)cn3C)CC1 |
| 94 | CN(Cc1cccnc1)C(=O)C1CCN(c2ccnc3c2c(/C=C2\Oc4ccc(NC(=O)Nc5cccnc5)cc4C2=O)cn3C)CC1 |
| > 98 | CN(Cc1ccccc1)C(=O)C1CCN(c2ccnc3c2c(/C=C2\Oc4ccc(NC(=O)Nc5cccnc5)cc4C2=O)cn3C)CC1 |
| 2.7 | CCN(CC)C(=O)C1CCN(c2ccnc3c2c(/C=C2\Oc4ccc(NC(=O)Nc5cccnc5)cc4C2=O)cn3C)CC1 |
| 187 | CN(Cc1ccccn1)C(=O)C1CCN(c2ccnc3c2c(/C=C2\Oc4ccc(NC(=O)Nc5cccnc5)cc4C2=O)cn3C)CC1 |
| > 909 | CN(C)C1CCN(C(=O)C2CCN(c3ccnc4c3c(/C=C3\Oc5ccc(NC(=O)Nc6cccnc6)cc5C3=O)cn4C)CC2)C1 (configuration not stated) |
| 380 | CN(C(=O)C1CCN(c2ccnc3c2c(/C=C2\Oc4ccc(NC(=O)Nc5cccnc5)cc4C2=O)cn3C)CC1)c1cccnc1 |
